The target of the assay is full-length human PKCι (Homo sapiens, UniProt P41743). Put plainly: PKCι IC50 IMAP fluorescence polarisation assay, full-length enzyme. Conditions: read-out: IC50 in IMAP assay against full length PKCi; full length PKCi at 15 μM ATP.

The chains behind the UniProt entries cited, without tags or fusion partners.
UniProt P41743, whole entry: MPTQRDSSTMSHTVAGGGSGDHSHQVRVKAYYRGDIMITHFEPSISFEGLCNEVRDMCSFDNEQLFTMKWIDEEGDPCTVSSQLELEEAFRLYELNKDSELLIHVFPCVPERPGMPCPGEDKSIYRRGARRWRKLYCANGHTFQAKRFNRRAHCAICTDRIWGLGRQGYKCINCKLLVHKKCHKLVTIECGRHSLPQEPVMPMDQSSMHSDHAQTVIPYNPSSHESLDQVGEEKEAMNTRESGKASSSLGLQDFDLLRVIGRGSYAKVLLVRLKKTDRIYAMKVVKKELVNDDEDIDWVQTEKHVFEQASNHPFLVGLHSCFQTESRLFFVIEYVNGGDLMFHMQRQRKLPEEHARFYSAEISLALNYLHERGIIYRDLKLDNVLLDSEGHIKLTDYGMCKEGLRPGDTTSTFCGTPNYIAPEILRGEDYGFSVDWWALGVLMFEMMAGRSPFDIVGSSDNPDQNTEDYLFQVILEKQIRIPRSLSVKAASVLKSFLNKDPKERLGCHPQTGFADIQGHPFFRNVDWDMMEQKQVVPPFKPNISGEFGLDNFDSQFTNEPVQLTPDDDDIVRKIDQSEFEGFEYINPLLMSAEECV

Molecules are shown by their SMILES.

As to `N[C@H](CNc1nc(-c2ccncc2)nc2c(/C=C/C(=O)O)csc12)Cc1ccccc1`, the IC50 lay within 100 to 1000 nM.
